Drawing on ChEMBL document CHEMBL5226323, “Targeting Nuclear Receptors in Neurodegeneration and Neuroinflammation” (J Med Chem, 2021), this text covers EC50 for 1 compound.

What is called EC50 is the concentration that produces a half-maximal response. The low end stands for a more potent agent, the high end for a less potent agent.

This assay deals with T1, Retinoic acid receptor RXR-gamma (Homo sapiens, UniProt P48443).
T1 sequence (P48443 whole entry): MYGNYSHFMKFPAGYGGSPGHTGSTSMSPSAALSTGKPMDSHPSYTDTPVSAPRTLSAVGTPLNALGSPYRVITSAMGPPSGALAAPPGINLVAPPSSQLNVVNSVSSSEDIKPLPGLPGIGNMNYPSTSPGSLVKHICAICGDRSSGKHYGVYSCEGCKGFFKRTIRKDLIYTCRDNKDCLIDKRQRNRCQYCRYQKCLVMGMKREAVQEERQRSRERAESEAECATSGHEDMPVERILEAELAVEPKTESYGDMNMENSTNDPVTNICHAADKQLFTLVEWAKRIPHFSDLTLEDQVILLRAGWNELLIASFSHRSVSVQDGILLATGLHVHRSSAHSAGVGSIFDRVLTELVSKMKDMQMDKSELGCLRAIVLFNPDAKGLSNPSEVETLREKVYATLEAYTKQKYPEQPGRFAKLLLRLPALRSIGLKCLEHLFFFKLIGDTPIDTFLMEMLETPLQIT
In words: Inhibition of RXRgamma (unknown origin).

In turn, `CC1(C)CCC(C)(C)c2cc(N(CC3CC3)c3ncc(C(=O)O)cn3)ccc21` gave an EC50 of 8 nM.
